Laboratory results reported in patent publication US4897384A, “Drug preparations of reduced toxicity” (priority 1986, dated 1990).

Test system: Swiss Webster mice
Details: mouse, in vivo

O=P(O)(O)O[C@H]1[C@H](OP(=O)(O)O)[C@@H](OP(=O)(O)O)[C@H](OP(=O)(O)O)[C@@H](OP(=O)(O)O)[C@H]1OP(=O)(O)O [Inositol hexaphosphate, inositol hexaphosphate]
Effectiveness in reducing aminoglycoside toxicity (in words): very effective in reducing the toxicity of streptomycin
